From US6924313B1
pIC50: −log10 of the molar value.

By UniProt entry, the sequences of proteins in these tests, tags left out. Residues count along the entry.
UniProt P11597, 18-493 limits assumed: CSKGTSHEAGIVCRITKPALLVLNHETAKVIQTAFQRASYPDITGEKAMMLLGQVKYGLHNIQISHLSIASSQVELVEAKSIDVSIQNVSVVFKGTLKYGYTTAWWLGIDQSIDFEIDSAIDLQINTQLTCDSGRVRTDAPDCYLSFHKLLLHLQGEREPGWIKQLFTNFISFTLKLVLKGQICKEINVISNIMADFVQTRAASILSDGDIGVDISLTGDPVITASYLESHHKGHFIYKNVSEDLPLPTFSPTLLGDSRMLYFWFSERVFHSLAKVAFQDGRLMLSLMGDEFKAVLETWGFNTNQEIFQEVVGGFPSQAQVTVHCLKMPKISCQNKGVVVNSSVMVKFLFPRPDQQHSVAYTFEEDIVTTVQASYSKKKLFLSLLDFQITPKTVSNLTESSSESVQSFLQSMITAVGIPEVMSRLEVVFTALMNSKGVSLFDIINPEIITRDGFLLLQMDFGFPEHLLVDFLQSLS

Molecular target: CETP (Homo sapiens, UniProt P11597)
Assay: CETP activity in vitro ([3H]CE transfer from HDL to LDL)
Conditions: read-out: CEPT Activity Assay IC50

| Structure (SMILES) | pIC50 |
| --- | --- |
| OC(CN(Cc1cccc(OC(F)(F)F)c1)C1CCCC1)C(F)(F)F (stereo not drawn) | < 4.00 |
| OC(CN(Cc1cccc(OC(F)(F)F)c1)Cc1cccc(OC(F)(F)F)c1)C(F)(F)F (stereo not drawn) | < 4.00 |
| CCCN(Cc1cccc(OC(F)(F)F)c1)CC(O)C(F)(F)F (stereo not drawn) | < 4.00 |
| OC(CN(Cc1cccc(C(F)(F)F)c1)c1cccc(Cl)c1)C(F)(F)F (stereo not drawn) | 4.90 |
| OC(CN(Cc1cccc(C(F)(F)F)c1)c1ccccc1)C(F)(F)F (stereo not drawn) | 4.80 |
| OC(CN(Cc1cccc(C(F)(F)F)c1)c1cccc(Br)c1)C(F)(F)F (stereo not drawn) | 4.68 |
| OC(CN(Cc1cccc(OC(F)(F)F)c1)c1ccc(F)c(C(F)(F)F)c1)C(F)(F)F (stereo not drawn) | 4.92 |
| CC(C)N(Cc1cccc(OC(F)(F)F)c1)CC(O)C(F)(F)F (stereo not drawn) | < 4.00 |
| Cc1cccc(CN(CC(O)C(F)(F)F)c2cccc(C(F)(F)F)c2)c1 (stereo not drawn) | < 4.00 |
